Reference: patent publication US10167299B2, “1-(3-aminopropyl) substituted cyclic amine compounds, preparation method therefor, and pharmaceutical compositions and uses thereof” (SHANGHAI INSTITUTE OF MATERIA MEDICA, CHINESE ACADEMY OF …, priority 2013, dated 2019)

Protein sequences, listed by entry. Tags and fused reporters are not part of them.
UniProt P51681, whole entry: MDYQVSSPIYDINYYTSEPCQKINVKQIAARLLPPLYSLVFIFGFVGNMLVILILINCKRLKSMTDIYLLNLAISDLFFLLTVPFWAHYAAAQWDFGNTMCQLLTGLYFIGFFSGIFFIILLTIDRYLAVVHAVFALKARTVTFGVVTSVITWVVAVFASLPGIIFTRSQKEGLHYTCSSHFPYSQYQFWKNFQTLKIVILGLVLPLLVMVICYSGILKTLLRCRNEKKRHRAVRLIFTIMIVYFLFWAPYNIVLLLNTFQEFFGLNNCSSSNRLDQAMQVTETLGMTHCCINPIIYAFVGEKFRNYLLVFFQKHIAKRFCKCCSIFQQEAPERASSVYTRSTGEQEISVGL

Biological target: CCR5 (Homo sapiens (Human), UniProt P51681)
Test: Calcium flux inhibition experiment
Type: cell-based
Settings: HEK293/CCR5-Gα16 cell line
From the text: Experiment apparatus: FlexStation II
Experiment materials: HEK293/CCR5-Gα16 cell line, Fluo-4calcium dye (fluorescent-4 calcium ion dye) and FlexStation instrument.
Experiment theory: Activation of the receptor can cause the activation of Gα16 protein, thereby activating phospholipase C (PLC) to generate IP3 and DAG by establishing CCR5 and Ga16 co-transfected cell line. IP3 can bind to IP3 receptors on the endoplasmic reticulum and mitochondria in a cell, which can cause the release of intracellular calcium. Thus, determination of changes in intracellular calcium can be used as a method to detect CCR5 activation state. Fluo-4/AM is a fluorescent probe indicator for calcium used to measure calcium ion. As a non-polar lipid-soluble compound, after it enters into cells, AM group is dissociated to release Fluo-4 under the effect of cell lipolysis enzyme. […] Ultimately, the level of activated Ga protein can be reflected by measuring the excited fluorescence intensity. […]
3. The medicament to be determined was diluted with calcium buffer to eight concentration gradients, which is 1×10^−4 M, 1×10^−5 M, 1×10^−6 M, 1×10^−7 M, 1×10^−8 M, 1×10^−9 M, 1×10^−10 M, and 1×10^−11 M, respectively, and homogeneously mixed. […]
5. […] 25 μl of calcium buffer containing the medicament to be determined was added automatically from the 15th second.

## Cc1nnc(C(C)C)n1C1CC2CCC(C1)N2CC[C@H](NC(=O)CC#N)c1cccs1 (stereo partly drawn) [Compound 164, N-[(1S)-3-[exo-3-(3-isopropyl-5-methyl-4H-1,2,4-triazol-4-yl)-8-azabicyclo[3.2.1]octane-8-yl]-1-(thiophen-2-yl)propyl]-2-cyanoacetamide]
  IC50: 7.38 nM
